This is an account of results in paper PMC7988493.

B1: unnamed (parent)
chain 1: MAEKAGSTFSHLLVPILLLIGWIVGCIIMIYVVFS
chain 2: MENAHTKTVEEVLGHFGVNESTGLSLEQVKKLKERWGSNELPAEEGKTLLELVIEQFEDLLVRILLLAACISFVLAWFEEGEETITAFVEPFVILLILVANAIVGVWQERNAENAIEALKEYEPEMGKVYRQDRKSVQRIKAKDIVPGDIVEIAVGDKVPADIRLTSIKSTTLRVDQSILTGESVSVIKHTDPVPDPRAVNQDKKNMLFSGTNIAAGKAMGVVVATGVNTEIGKIRDEMVATEQERTPLQQKLDEFGEQLSKVISLICIAVWIINIGHFNDPVHGGSWIRGAIYYFKIAVALAVAAIPEGLPAVITTCLALGTRRMAKKNAIVRSLPSVETLGCTSVICSDKTGTLTTNQMSVCRMFILDRVEGDTCSLNEFTITGSTYAPIGEVHKDDKPVNCHQYDGLVELATICALCNDSALDYNEAKGVYEKVGEATETALTCLVEKMNVFDTELKGLSKIERANACNSVIKQLMKKEFTLEFSRDRKSMSVYCTPNKPSRTSMSKMFVKGAPEGVIDRCTHIRVGSTKVPMTSGVKQKIMSVIREWGSGSDTLRCLALATHDNPLRREEMHLEDSANFIKYETNLTFVGCVGMLDPPRIEVASSVKLCRQAGIRVIMITGDNKGTAVAICRRIGIFGQDEDVTSKAFTGREFDELNPSAQRDACLNARCFARVEPSHKSKIVEFLQSFDEITAMTGDGVNDAPALKKAEIGIAMGSGTAVAKTASEMVLADDNFSTIVAAVEEGRAIYNNMKQFIRYLISSNVGEVVCIFLTAALGFPEALIPVQLLWVNLVTDGLPATALGFNPPDLDIMNKPPRNPKEPLISGWLFFRYLAIGCYVGAATVGAAAWWFIAADGGPRVSFYQLSHFLQCKEDNPDFEGVDCAIFESPYPMTMALSVLVTIEMCNALNSLSENQSLLRMPPWENIWLVGSICLSMSLHFLILYVEPLPLIFQITPLNVTQWLMVLKISLPVILMDETLKFVARNYLEPAILE

The first assay covers variants of B1. Briefly: FRET efficiency (fluorescence lifetime) in live cells. Particulars: with partner chain of the complex shown; 5 μg/well of each mutant DWORF DNA transfected into a stable cell line expressing GFP–SERCA2a; n = 3; parent: 0.14; read off a plot.
chain 1 C26A: the response was determined as 0.14.
With chain 1 L17A, the response came to 0.14.
For the variant chain 1 V14A, the response is 0.15.
As to chain 1 L18A, the response was 0.14.
In the case of chain 1 G25A, the response amounted to 0.14.
With chain 1 Y31A, the response is 0.14.

The variants in the next assay derive from B1. Briefly: FRET efficiency (FLT measurement excited at 481 nm) in live cells. Particulars: with partner chain of the complex shown; 5 μg/well of each double-mutant DWORF DNA transfected into a stable cell line expressing GFP–SERCA2a; n = 3; parent: 0.14; read off a plot.
Consider chain 1 V14A Y31A, for which the response turned out to be 0.14.
